# Measured values published in US20160193216A1 (Nimbus Iris, Inc., priority 2012, published 2016).
# Amino acid sequences for entries named in this document (tags omitted).
# UniProt Q9NWZ3, whole entry: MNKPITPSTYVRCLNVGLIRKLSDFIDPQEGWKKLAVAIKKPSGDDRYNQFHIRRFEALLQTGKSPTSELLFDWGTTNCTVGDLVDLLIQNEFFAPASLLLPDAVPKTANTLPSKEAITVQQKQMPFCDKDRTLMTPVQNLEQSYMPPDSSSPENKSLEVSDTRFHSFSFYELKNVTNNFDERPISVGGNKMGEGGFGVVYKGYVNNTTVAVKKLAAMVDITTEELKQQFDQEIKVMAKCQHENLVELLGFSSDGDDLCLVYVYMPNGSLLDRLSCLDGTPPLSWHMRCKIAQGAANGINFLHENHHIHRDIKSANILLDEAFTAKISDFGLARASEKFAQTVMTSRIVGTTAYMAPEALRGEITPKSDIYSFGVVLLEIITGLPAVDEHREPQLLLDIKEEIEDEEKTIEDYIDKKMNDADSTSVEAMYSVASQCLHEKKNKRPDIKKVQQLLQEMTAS
# Target: IRAK4 (Homo sapiens, UniProt Q9NWZ3)
# Assay: IRAK-4 activity inhibition assay (Caliper)
# Format: biochemical
# Settings: read-out: IRAK-4 activity inhibition IC50; 37 μM ATP, 3.5 nM IRAK4
smiles,measurement,value
CNC(=O)CNC(=O)C[C@H]1CCc2sc3ncnc(O[C@H]4CC[C@H](N(C)C)CC4)c3c21,IC50,< 5 µM
